Apparent affinities of Ab-91 variants for a coronavirus HR2 peptide

Values reported by Engelhart et al. 2022, doi:10.1038/s41597-022-01779-4 (FLAb copy).

Target peptide (SARS-CoV-2 spike, HR2 region): PDVDLGDISGINAS

Each scFv is VL, a (GGGGS)3 linker, VH, as in the parent Ab-91, and differs from it in the CDRs of the heavy chain only.
VL: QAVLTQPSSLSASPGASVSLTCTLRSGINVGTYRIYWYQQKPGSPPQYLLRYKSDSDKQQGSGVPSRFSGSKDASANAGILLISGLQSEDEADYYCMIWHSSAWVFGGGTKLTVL
VH: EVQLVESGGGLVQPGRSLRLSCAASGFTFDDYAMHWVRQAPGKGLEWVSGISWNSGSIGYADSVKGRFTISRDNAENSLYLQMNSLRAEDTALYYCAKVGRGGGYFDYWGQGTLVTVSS

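The starting antibody came from a phage panning campaign against this peptide. The library (AAYL51) carries one to three amino acid substitutions per variant, with no insertions or deletions. AlphaSeq pools MATa yeast showing the antibodies with MATalpha yeast showing the peptide. After mating in shaken culture at 30 °C for 16 h, diploids were selected and their barcode pairs sequenced. Read counts were normalised to the haploid input and turned into Kd by a linear fit to BCL2-family pairs of known affinity, for each replicate. The assay was run in three technical replicates.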

Variants are written as CDR1, CDR2 and CDR3 of the heavy chain (limits as in the source). Parent: GFTFDDYAMH, GISWNSGSIGYADSVK, VGRGGGYFDY. Every variant below is changed at R101 of the VH (sequential numbering). The Kd shown is the geometric mean over detected replicates; a lower Kd is a better binder. "no signal" means that the variant was in the library but no mating with the target was seen in any replicate; the authors take this as a sign of poor binding, and no number exists. Empty control strains, which show no peptide, gave a signal in 21% of pairings with library AAYL51; the median was 34 µM and 95% of these signals were weaker than 1.8 µM. No background was subtracted. Also given: how often the same scFv was detected with the empty control strains. For reference, the parent read 72 nM as the reference entry and 7.5 nM as a member of this library.

- GFTFDDYAMH | GISWNSGSIGYADSVK | VGVGGGYWDY: 190 nM (2 of 3 replicates; controls 0 of 9)
- HFTFDDYAMH | GISWNSGRIGYADSVK | VGIGGGYFDY: 110 µM (3 of 3 replicates; controls 6 of 9)
- GFTFDDYAMH | GISWNSGSIGYADSVV | VGHGGGEFDY: 200 µM (2 of 3 replicates; controls 8 of 9)
- GFTFDDYGMH | GISWNSGSIGYADSVS | VGEGGGYFDY: 800 pM (3 of 3 replicates; controls 2 of 9)
- GFTFDDYAMH | GISWISLSIGYADSVK | VGTGGGYFDY: 230 µM (1 of 3 replicates; controls 1 of 9)
- GFTFDDPAMH | GISWNSGSIGYADSVK | VGCGGEYFDY: no signal (0 of 3 replicates; controls 0 of 9)
- GFTFDDYAMH | GISWNSGSIGYADSPK | VGQGGGYFDT: no signal (0 of 3 replicates; controls 0 of 9)
- GFTFIDYAMH | GISWNSGSIGYEDSVK | VGWGGGYFDY: no signal (0 of 3 replicates; controls 1 of 9)
- GFTFDDYAMH | GISWNSGSIGYADSVK | VTWGGGYFSY: 830 µM (1 of 3 replicates; controls 1 of 9)
- GFTFDDYAMH | GISCNSGSIGYADSVK | VGIGDGYFDY: 32 µM (3 of 3 replicates; controls 5 of 9)
- GMTFDDYAMH | GISWNSGSIGYADSYK | VGMGGGYFDY: 32 µM (2 of 3 replicates; controls 2 of 9)
- GFTFDDYAMH | GISWNSGSIGYLDSVK | VGMGGNYFDY: no signal (0 of 3 replicates; controls 1 of 9)
- GFTFDDYVMH | GISFNSGSIGYADSVK | VGCGGGYFDY: no signal (0 of 3 replicates; controls 4 of 9)
- GFTFDDYAMH | GISWNSGSIGYADSVG | VGTLGGYFDY: no signal (0 of 3 replicates; controls 0 of 9)
- GFTFDDYAMH | GISWNSGSIVYADSVK | VGTGGGYFPY: 160 µM (3 of 3 replicates; controls 4 of 9)
- GFTFDCYAMH | GISINSGSIGYADSVK | VGGGGGYFDY: 7.6 µM (2 of 3 replicates; controls 2 of 9)
- GFTFDDYAMH | GISWNSGSIGYADYVK | VGEGGGYMDY: no signal (0 of 3 replicates; controls 0 of 9)
- GFTFDDYAMH | GISWNSGSIRYADSVK | VGSGGGYFDY: 44 µM (1 of 3 replicates; controls 2 of 9)
- GFTFDDRAMH | GISWNSGSIGYADSVK | VGSGGGYFDY: 120 µM (3 of 3 replicates; controls 3 of 9)
- GFTFDDYAMH | GISWNSGSIGYADSVK | VGLGPGAFDY: no signal (0 of 3 replicates; controls 2 of 9)
- GFTFDDYAMH | GISWESGSIGYADSVK | VGQGGGYFDY: 45 nM (3 of 3 replicates; controls 2 of 9)
- GFTFDDYAMH | GISDNSGSIGYADSVK | VGHGGHYFDY: 6.2 µM (1 of 3 replicates; controls 1 of 9)
- GFTFDDYAMH | GISWNSGSIGYADSVK | VGVAMGYFDY: no signal (0 of 3 replicates; controls 0 of 9)
- GFTFDDYAMH | GWSWNSGSTGYADSVK | VGLGGGYFDY: 12 µM (2 of 3 replicates; controls 0 of 9)
- GFTFDDYAMH | GISWNSGSIHYADSSK | VGLGGGYFDY: no signal (0 of 3 replicates; controls 5 of 9)
- GFTGDDYADH | GISWNSGSIGYADSVK | VGMGGGYFDY: 50 µM (3 of 3 replicates; controls 3 of 9)
- GFTFDDYAMH | GISWNSGSIGYADSVK | VVVGGGYFDL: 41 µM (1 of 3 replicates; controls 3 of 9)
- GFTDDDYAMH | WISWNSGSIGYADSVK | VGCGGGYFDY: 500 µM (2 of 3 replicates; controls 1 of 9)
- GFTFDDYAMH | GISWASGSIGYADSGK | VGNGGGYFDY: 240 µM (2 of 3 replicates; controls 3 of 9)
- GFTFFDYAMH | GISWNSGSIGYADSVK | VGGGGGYFDD: 1.8 µM (1 of 3 replicates; controls 2 of 9)
- GFTFDDYAMH | GISWNSGSIGYANKVK | VGIGGGYFDY: 220 nM (3 of 3 replicates; controls 1 of 9)
- GFTFDDYAMH | GISWNSGSIGYATSVK | VGTGGGHFDY: 700 nM (3 of 3 replicates; controls 3 of 9)
- GFTFDCYAMH | GISWNSGSIGYADSVK | VGWGGGYFDY: 2.5 µM (3 of 3 replicates; controls 2 of 9)
- GFTFDKYAVH | GISWNSGSIGYADSVK | VGAGGGYFDY: 9.7 nM (3 of 3 replicates; controls 1 of 9)
- GFTFDDYAMH | GISWNSGSIGYGDSVK | VGGGGGKFDY: no signal (0 of 3 replicates; controls 0 of 9)
- GFTFDDYAMH | GISWFSGSIGYADSVK | VGGGGGYFCY: no signal (0 of 3 replicates; controls 0 of 9)
- GFTFDDYAMH | GISWNSGSIGYADEVK | VGIGGGYFDY: 41 nM (3 of 3 replicates; controls 1 of 9)
- GFTFDDYAMH | GISTNSGSIGYADSVK | VGQGGGYFNY: 500 nM (3 of 3 replicates; controls 0 of 9)
- GMTFDDYDMH | GISWNSGSIGYADSVK | VGFGGGYFDY: 43 µM (1 of 3 replicates; controls 3 of 9)

The first 5 entries again:

{"CDR-H1": "GFTFDDYAMH", "CDR-H2": "GISWNSGSIGYADSVK", "CDR-H3": "VGVGGGYWDY", "apparent Kd": "190 nM", "replicates with signal": "2 of 3", "control signals": "0 of 9"}
{"CDR-H1": "HFTFDDYAMH", "CDR-H2": "GISWNSGRIGYADSVK", "CDR-H3": "VGIGGGYFDY", "apparent Kd": "110 µM", "replicates with signal": "3 of 3", "control signals": "6 of 9"}
{"CDR-H1": "GFTFDDYAMH", "CDR-H2": "GISWNSGSIGYADSVV", "CDR-H3": "VGHGGGEFDY", "apparent Kd": "200 µM", "replicates with signal": "2 of 3", "control signals": "8 of 9"}
{"CDR-H1": "GFTFDDYGMH", "CDR-H2": "GISWNSGSIGYADSVS", "CDR-H3": "VGEGGGYFDY", "apparent Kd": "800 pM", "replicates with signal": "3 of 3", "control signals": "2 of 9"}
{"CDR-H1": "GFTFDDYAMH", "CDR-H2": "GISWISLSIGYADSVK", "CDR-H3": "VGTGGGYFDY", "apparent Kd": "230 µM", "replicates with signal": "1 of 3", "control signals": "1 of 9"}